{"source": "ChEMBL document CHEMBL3885881", "about": "“DrugMatrix”", "species_on_record": "Rattus norvegicus", "experiment": "DrugMatrix - Regimen: Daily Repeat", "format": "toxicity, organism-based, Sprague-Dawley", "design": "regimen Daily Repeat, gender Male, age 6-8 weeks", "settings": "in vivo", "key": {"[1]": {"settings": "po, 0 mg/kg, 72 h, tissue Plasma, route oral GAVAGE, dose level Control, time 3 day, vehicle 100 % WATER"}, "[2]": {"settings": "po, 0 mg/kg, 120 h, tissue Plasma, route oral GAVAGE, dose level Control, time 5 day, vehicle 100 % WATER"}, "[3]": {"settings": "po, […], 120 h, tissue Plasma, route oral GAVAGE, dose 7.5 mg/Kg, dose level Low, time 5 day, vehicle 100 % WATER"}}}
{"compound": "CN1[C@@H]2CC[C@H]1C[C@@H](OC(=O)C(CO)c1ccccc1)C2", "note": "(stereo partly drawn) [ATROPINE]", "values": [{"measurement": "MONOCYTE", "setting": "po, […], 72 h, tissue Blood, route oral GAVAGE, dose 2.3 mg/Kg, dose level Low, time 3 day, vehicle 100 % WATER", "value": 1.33, "unit": "%"}]}
{"compound": "NC(=O)N1c2ccccc2C=Cc2ccccc21", "note": "[CARBAMAZEPINE]", "values": [{"measurement": "ALBUMIN", "setting": "po, 30 mg/kg, 72 h, tissue Plasma, route oral GAVAGE, dose level Low, time 3 day, vehicle .5 % CMC", "value": 4.47, "unit": "G/DL"}, {"measurement": "ALBUMIN", "setting": "po, 30 mg/kg, 120 h, tissue Plasma, route oral GAVAGE, dose level Low, time 5 day, vehicle .5 % CMC", "value": 4.27, "unit": "G/DL"}, {"measurement": "ALBUMIN", "setting": "po, 490 mg/kg, 72 h, tissue Plasma, route oral GAVAGE, dose level High, time 3 day, vehicle .5 % CMC", "value": 4.27, "unit": "G/DL"}, {"measurement": "ALBUMIN", "setting": "po, 490 mg/kg, 120 h, tissue Plasma, route oral GAVAGE, dose level High, time 5 day, vehicle .5 % CMC", "value": 4.37, "unit": "G/DL"}]}
{"compound": "CNC1=Nc2ccc(Cl)cc2C(c2ccccc2)=[N+]([O-])C1", "note": "[CHLORDIAZEPOXIDE]", "values": [{"measurement": "ALBUMIN", "setting": "[1]", "value": 4.18, "unit": "G/DL"}, {"measurement": "ALBUMIN", "setting": "[2]", "value": 4.28, "unit": "G/DL"}, {"measurement": "ALBUMIN", "setting": "po, […], 72 h, tissue Plasma, route oral GAVAGE, dose 7.5 mg/Kg, dose level Low, time 3 day, vehicle 100 % WATER", "value": 4.27, "unit": "G/DL"}, {"measurement": "ALANINE AMINOTRANSFERASE", "setting": "[3]", "value": 41.33, "unit": "u/L"}, {"measurement": "ALBUMIN", "setting": "[3]", "value": 4.23, "unit": "G/DL"}]}
{"compound": "CN(C)CCCN1c2ccccc2Sc2ccc(Cl)cc21", "note": "[CHLORPROMAZINE]", "values": [{"measurement": "ALBUMIN", "setting": "[1]", "value": 4.23, "unit": "G/DL"}, {"measurement": "ALBUMIN", "setting": "[2]", "value": 3.97, "unit": "G/DL"}, {"measurement": "ALBUMIN", "setting": "po, 18 mg/kg, 72 h, tissue Plasma, route oral GAVAGE, dose level Low, time 3 day, vehicle 100 % WATER", "value": 4.2, "unit": "G/DL"}, {"measurement": "ALBUMIN", "setting": "po, 18 mg/kg, 120 h, tissue Plasma, route oral GAVAGE, dose level Low, time 5 day, vehicle 100 % WATER", "value": 4.27, "unit": "G/DL"}, {"measurement": "ALBUMIN", "setting": "po, 73 mg/kg, 72 h, tissue Plasma, route oral GAVAGE, dose level High, time 3 day, vehicle 100 % WATER", "value": 4.23, "unit": "G/DL"}, {"measurement": "ALBUMIN", "setting": "po, 73 mg/kg, 120 h, tissue Plasma, route oral GAVAGE, dose level High, time 5 day, vehicle 100 % WATER", "value": 4.17, "unit": "G/DL"}]}
{"compound": "CCN(CC)CCOc1ccc(/C(=C(/Cl)c2ccccc2)c2ccccc2)cc1", "note": "[ENCLOMIPHENE]", "values": [{"measurement": "ABSOLUTE MONOCYTE", "setting": "po, 3 mg/kg, 72 h, tissue Blood, route oral GAVAGE, dose level Low, time 3 day, vehicle .5 % CMC", "value": 162, "unit": "CELLS/uL"}, {"measurement": "HEMOGLOBIN", "setting": "po, 250 mg/kg, 120 h, tissue Blood, route oral GAVAGE, dose level M1, time 5 day, vehicle .5 % CMC", "value": 16.2, "unit": "G/DL"}, {"measurement": "LIPASE", "setting": "po, 500 mg/kg, 72 h, tissue Plasma, route oral GAVAGE, dose level High, time 3 day, vehicle .5 % CMC", "value": 7.33, "unit": "u/L"}]}
{"compound": "COc1cccc2c1C(=O)c1c(O)c3c(c(O)c1C2=O)C[C@@](O)(C(=O)CO)C[C@@H]3O[C@H]1C[C@H](N)[C@@H](O)[C@H](C)O1", "note": "[EPIRUBICIN]", "values": [{"measurement": "POTASSIUM", "setting": "iv, […], 120 h, tissue Plasma, dose 0.27 mg/Kg, dose level Low, time 5 day, vehicle 100 % SALINE", "value": 6.89, "unit": "MEQ/L"}]}
{"compound": "C#Cc1cccc(Nc2ncnc3cc(OCCOC)c(OCCOC)cc23)c1", "note": "[ERLOTINIB]", "values": [{"measurement": "ALBUMIN", "setting": "[1]", "value": 3.8, "unit": "G/DL"}, {"measurement": "ALBUMIN", "setting": "[2]", "value": 3.8, "unit": "G/DL"}, {"measurement": "ALBUMIN", "setting": "po, 58 mg/kg, 72 h, tissue Plasma, route oral GAVAGE, dose level Low, time 3 day, vehicle 100 % WATER", "value": 3.23, "unit": "G/DL"}, {"measurement": "ALBUMIN", "setting": "po, 58 mg/kg, 120 h, tissue Plasma, route oral GAVAGE, dose level Low, time 5 day, vehicle 100 % WATER", "value": 3.37, "unit": "G/DL"}]}
{"compound": "Cc1ccc(NC(=O)c2ccc(CN3CCN(C)CC3)cc2)cc1Nc1nccc(-c2cccnc2)n1", "note": "[IMATINIB]", "values": [{"measurement": "ASPARTATE AMINOTRANSFERASE", "setting": "[1]", "value": 83.17, "unit": "u/L"}, {"measurement": "ASPARTATE AMINOTRANSFERASE", "setting": "[2]", "value": 80, "unit": "u/L"}, {"measurement": "ASPARTATE AMINOTRANSFERASE", "setting": "po, 15 mg/kg, 72 h, tissue Plasma, route oral GAVAGE, dose level Low, time 3 day, vehicle 100 % WATER", "value": 89.67, "unit": "u/L"}, {"measurement": "ASPARTATE AMINOTRANSFERASE", "setting": "po, 15 mg/kg, 120 h, tissue Plasma, route oral GAVAGE, dose level Low, time 5 day, vehicle 100 % WATER", "value": 89.67, "unit": "u/L"}, {"measurement": "ASPARTATE AMINOTRANSFERASE", "setting": "po, 150 mg/kg, 72 h, tissue Plasma, route oral GAVAGE, dose level High, time 3 day, vehicle 100 % WATER", "value": 113, "unit": "u/L"}, {"measurement": "ASPARTATE AMINOTRANSFERASE", "setting": "po, 150 mg/kg, 120 h, tissue Plasma, route oral GAVAGE, dose level High, time 5 day, vehicle 100 % WATER", "value": 119, "unit": "u/L"}]}
{"compound": "CN1CCN2c3ccccc3Cc3ccccc3C2C1", "note": "(stereo not drawn) [MIANSERIN]", "values": [{"measurement": "ERYTHROCYTE COUNT", "setting": "po, 10 mg/kg, 72 h, tissue Blood, route oral GAVAGE, dose level Low, time 3 day, […]", "value": 5.59, "unit": "x10E6/uL"}]}
{"compound": "CCOC(=O)C1=C(C)NC(C)=C(C(=O)OC)C1c1cccc([N+](=O)[O-])c1", "note": "(stereo not drawn) [NITRENDIPINE]", "values": [{"measurement": "ALBUMIN", "setting": "po, 0 mg/kg, 72 h, tissue Plasma, route oral GAVAGE, dose level Control, time 3 day, […]", "value": 3.97, "unit": "G/DL"}, {"measurement": "ALBUMIN", "setting": "po, 0 mg/kg, 120 h, tissue Plasma, route oral GAVAGE, dose level Control, time 5 day, […]", "value": 4.12, "unit": "G/DL"}, {"measurement": "ALBUMIN", "setting": "po, 10 mg/kg, 72 h, tissue Plasma, route oral GAVAGE, dose level Low, time 3 day, […]", "value": 3.87, "unit": "G/DL"}, {"measurement": "ALBUMIN", "setting": "po, 10 mg/kg, 120 h, tissue Plasma, route oral GAVAGE, dose level Low, time 5 day, […]", "value": 4.27, "unit": "G/DL"}, {"measurement": "MEAN CORPUSCULAR HEMOGLOBIN CONCENTRATION", "setting": "po, 1100 mg/kg, 72 h, tissue Blood, route oral GAVAGE, dose level High, time 3 day, […]", "value": 38.67, "unit": "G/DL"}, {"measurement": "ALBUMIN", "setting": "po, 1100 mg/kg, 72 h, tissue Plasma, route oral GAVAGE, dose level High, time 3 day, […]", "value": 3.57, "unit": "G/DL"}, {"measurement": "ALBUMIN", "setting": "po, 1100 mg/kg, 120 h, tissue Plasma, route oral GAVAGE, dose level High, time 5 day, […]", "value": 3.6, "unit": "G/DL"}]}
{"compound": "O=C1NC(=O)C(c2ccccc2)(c2ccccc2)N1", "note": "[PHENYTOIN]", "values": [{"measurement": "ALBUMIN", "setting": "[1]", "value": 3.78, "unit": "G/DL"}, {"measurement": "ALBUMIN", "setting": "[2]", "value": 4.33, "unit": "G/DL"}, {"measurement": "ALBUMIN", "setting": "po, 46 mg/kg, 72 h, tissue Plasma, route oral GAVAGE, dose level Low, time 3 day, vehicle 100 % WATER", "value": 3.93, "unit": "G/DL"}, {"measurement": "ALBUMIN", "setting": "po, 46 mg/kg, 120 h, tissue Plasma, route oral GAVAGE, dose level Low, time 5 day, vehicle 100 % WATER", "value": 4.3, "unit": "G/DL"}]}
{"compound": "COc1ccc(C(CN(C)C)C2(O)CCCCC2)cc1", "note": "(stereo not drawn) [VENLAFAXINE]", "values": [{"measurement": "ALBUMIN", "setting": "[1]", "value": 4.05, "unit": "G/DL"}, {"measurement": "ALBUMIN", "setting": "[2]", "value": 4.38, "unit": "G/DL"}, {"measurement": "ALBUMIN", "setting": "po, 22 mg/kg, 72 h, tissue Plasma, route oral GAVAGE, dose level Low, time 3 day, vehicle 100 % WATER", "value": 4.47, "unit": "G/DL"}, {"measurement": "ALBUMIN", "setting": "po, 22 mg/kg, 120 h, tissue Plasma, route oral GAVAGE, dose level Low, time 5 day, vehicle 100 % WATER", "value": 4.57, "unit": "G/DL"}, {"measurement": "ALBUMIN", "setting": "po, 320 mg/kg, 72 h, tissue Plasma, route oral GAVAGE, dose level High, time 3 day, vehicle 100 % WATER", "value": 4.17, "unit": "G/DL"}, {"measurement": "ALBUMIN", "setting": "po, 320 mg/kg, 120 h, tissue Plasma, route oral GAVAGE, dose level High, time 5 day, vehicle 100 % WATER", "value": 4.17, "unit": "G/DL"}]}
